{"sequences": {"note": "By UniProt entry, the sequences of proteins in these tests, tags left out. Residues count along the entry.", "UniProt P19099, 25-503 limits assumed": "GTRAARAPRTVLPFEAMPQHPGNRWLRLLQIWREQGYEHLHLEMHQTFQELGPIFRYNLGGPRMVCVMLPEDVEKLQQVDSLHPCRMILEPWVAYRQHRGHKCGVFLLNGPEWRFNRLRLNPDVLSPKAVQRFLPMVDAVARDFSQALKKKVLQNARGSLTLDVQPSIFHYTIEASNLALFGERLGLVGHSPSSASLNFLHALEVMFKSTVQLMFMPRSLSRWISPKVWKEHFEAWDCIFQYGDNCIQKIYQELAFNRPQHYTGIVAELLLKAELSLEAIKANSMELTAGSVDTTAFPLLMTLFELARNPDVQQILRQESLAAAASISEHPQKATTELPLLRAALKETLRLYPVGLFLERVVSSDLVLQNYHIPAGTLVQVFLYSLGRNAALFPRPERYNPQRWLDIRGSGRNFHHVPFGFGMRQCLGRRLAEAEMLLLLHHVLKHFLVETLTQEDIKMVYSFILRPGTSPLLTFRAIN"}, "source": "patent US10717731B2", "about": "“Nitrogen-containing aromatic heterocyclic compound” (MITSUBISHI TANABE PHARMA CORPORATION, priority 2015, dated 2020)", "target": "human CYP11B2 (Homo sapiens, UniProt P19099)", "test": "Inhibitory effect on hCYP11B2: aldosterone production in mitochondrial fraction of V79 cells stably expressing human CYP11B2, HTRF", "format": "biochemical", "conditions": "read-out: hCyp11B2 IC50; 0.5 μmol/L deoxycorticosterone, 150 μmol/L NADPH, 1.5-2 hours at room temperature", "method": "Experimental Example 1 (Inhibitory Effect on hCYP11B2)\nThe pcDNA3.1-human CYP11B2 plasmid was transfected into a Chinese hamster lung fibroblast V79 cell line to produce a cell line stably expressing human CYP11B2 gene.\nThe cells were cultured and grown in the Dulbecco's modified Eagle's/Ham's medium supplemented with 10% fetal bovine serum and 1% G418 disulfate solution under the environment of 37° C., 95% air, and 5% CO2, and the grown cells were harvested.\nThen, the cells were fractionated to obtain mitochondria by reference to a method described in Chabre et al. JCE & M 85 (11) 4060-68, 2000. In particular, the cells suspended in a 5 mmol/L Tris-HCl buffer (pH 7.4) containing 250 mmol/L sucrose were homogenized in a Teflon (Registered Trademark) Potter Elvehjem homogenizer, and then the suspension was centrifuged (800×g, 15 min.). […]\nThe mitochondrial fraction diluted with a buffer containing 10 mmol/L KH2PO4, 10 mmol/L Tris, 20 mmol/L KCl, 25 mmol/L sucrose, 5 mmol/L MgCl2, and 0.05% bovine serum albumin was dispensed to a 96-well plate. […] An amount of the produced aldosterone in the incubated solution was determined by using HTRF (Homogeneous Time Resolved Fluorescence) method.\nIC50 (nmol/L) was calculated by analyzing the aldosterone production inhibition rate (%) of each concentration of compounds by non-linear regression to a logistic curve."}
{"compound": "O=C(CN1CCN(c2cc(-c3ccc(F)cc3)cnn2)CC1)N[C@@H]1CCNC[C@H]1F", "note": "(relative stereo)", "values": [{"measurement": "IC50", "value": 10, "unit": "nM"}]}
